The text below walks through data of paper PMC7747700, “Enantiomer-specific activities of an LRH-1 and SF-1 dual agonist” (Scientific Reports, 2020).

By UniProt entry, the sequences of proteins in these tests, tags left out. Residues count along the entry.
UniProt Q13285, 218-461: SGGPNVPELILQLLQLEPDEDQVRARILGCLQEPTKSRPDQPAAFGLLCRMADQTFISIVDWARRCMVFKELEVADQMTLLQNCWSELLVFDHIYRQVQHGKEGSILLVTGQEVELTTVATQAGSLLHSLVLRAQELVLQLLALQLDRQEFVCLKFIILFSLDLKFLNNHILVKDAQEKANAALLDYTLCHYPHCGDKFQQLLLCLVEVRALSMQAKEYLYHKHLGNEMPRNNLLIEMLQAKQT

In this assay the target is T1, SF-1 LBD (Homo sapiens, UniProt Q13285).
T1 construct: SF-1 LBD (residues 218–461) in the pMSC7 vector; His-tag; made in house; host or cells: E. coli BL21 (pLysS)
In words: Fluorescence polarization competition binding assay, SF-1 LBD. To be noted: displacement of 6N-FAM probe, 95% confidence intervals in square brackets. The procedure:
Previous coregulator recruitment studies indicate that both RJW100 enantiomers bind LRH-1 and SF-1[34], but ligand binding affinities have not been measured. To determine binding affinities, we utilized a fluorescence polarization-based, equilibrium ligand binding assay in which a fluorescein-labelled probe is displaced by unlabelled competing ligands. Differences in probe affinity for LRH-1 and SF-1 were calculated prior to the competition assays and are accounted for in the equation for fitting the competition data (details in the methods section and our previous publication)[39]. […]. However, magnitude of the affinity difference is fairly small and may not be biologically important. […]. Assays utilized a fluorescein-labelled probe (6 N-FAM) that is displaced by unlabelled competitors. Competition assays were conducted in opaque, black 384 assay plates using a combination of 10 nM 6 N-FAM with 5 nM LRH-1 ligand binding domain (LBD) or 30 nM 6 N-FAM with 25 nM SF-1 LBD (these concentrations were determined through optimization steps in our previous work)[39]. […] FP was measured on a BioTek Neo plate reader. […]
Significance of differences in Ki values from parallel experiments was determined using two-tailed, paired t-tests, with p < 0.05 considered statistically significant.

Take `C=C(c1ccccc1)[C@@]12CC[C@@H](O)[C@@H]1CC(CCCCCC)=C2c1ccccc1` [RR-RJW100, (1R,5R,6R)-3-Hexyl-6-hydroxy-2-phenyl-1-(phenylvinyl)-bicyclo[3.3.0]oct-2-ene]: the Ki amounted to 13 µM. Next, `C=C(c1ccccc1)[C@]12CC[C@H](O)[C@H]1CC(CCCCCC)=C2c1ccccc1` [SS-RJW100, (1S,5S,6S)-3-Hexyl-6-hydroxy-2-phenyl-1-(phenylvinyl)-bicyclo[3.3.0]oct-2-ene]: 30 µM.
